Measurements from ChEMBL document CHEMBL5500361, “Probing benzenesulfonamide-thiazolidinone hybrids as multitarget directed ligands for efficient control of type 2 diabetes mellitus through targeting the enzymes: α-glucosidase and carbonic anhydrase II” (Eur J Med Chem, 2024).

Assays:
MCF7 [1] = experiment: Antiproliferative activity against human MCF7 cells assessed as inhibition of cell growth under hypoxia condition by MTT colorimetric assay
MCF7 [2] = experiment: Antiproliferative activity against human MCF7 cells assessed as inhibition of cell growth under normoxia condition by MTT colorimetric assay

Compound | IC50 (MCF7 [1]) [µM] | IC50 (MCF7 [2]) [µM]
CCN1C(=O)/C(=C2\C(=O)Nc3ccccc32)S/C1=N/c1ccc(S(N)(=O)=O)cc1 | 25.3 | 7.95
CCN1C(=O)/C(=C\c2ccc(Cl)cc2)S/C1=N/c1ccc(S(N)(=O)=O)cc1 | 14.8 | 9.8
